The entries are a selection whose mix differs from that of the whole data set. Records with an inconclusive call do not appear. A call without a number means that no potency is given here. Activity calls are given as the source filed them. Calls follow the shape of the dose curve; as a rule, active = well fitted activation curve with a large enough effect; inconclusive = small, poorly fitted or top-dose-only effect; inactive = no such curve, though single readings can be large or run the other way.
Assay: A quantitative high throughput screen for small molecules that induce DNA re-replication in SW480 colon adenocarcinoma cells. Also: nearly all actives have a fitted effect of over 55% in size.
Details: Hoechst DNA content imaging, 48 h; series mostly up to 46.1 µM
Potency is read from the fitted curve at half-maximal effect.

| SMILES | Potency | re-replication activation |
| --- | --- | --- |
| Cc1nc2ccc3ccccc3c2s1.O=[N+]([O-])c1cc([N+](=O)[O-])c(O)c([N+](=O)[O-])c1 | inactive | – |
| O=[N+]([O-])c1cc([N+](=O)[O-])c(-n2nnc3ccccc32)c([N+](=O)[O-])c1 | inactive | – |
| COc1ccccc1OP(C)(=O)Nc1c(C)cccc1C (stereo unspecified) | inactive | – |
| CN1CCCCC1COC(=O)C1(O)c2ccccc2CCc2ccccc21 (stereo unspecified) | inactive | – |
| CP(=O)(Nc1ccc(SC(F)(F)F)cc1)Oc1ccccc1 (stereo unspecified) | inactive | – |
| CCCOc1ccc(NP(C)(=O)Oc2ccc(Cl)cc2)cc1 (stereo unspecified) | inactive | – |
| O=[N+]([O-])c1cc([N+](=O)[O-])c(Nc2nnnn2CCO)c([N+](=O)[O-])c1 | inactive | – |
| CC1CCOC(=O)C=CC=CC(=O)OC2CC3OC4C5OC5(C)CCC4(COC(=O)C1O)C2(C)C31CO1 (stereo unspecified) | active: 0.0651 µM | – |
| O=[N+]([O-])OCC(CO[N+](=O)[O-])(CO[N+](=O)[O-])CO[N+](=O)[O-] | inactive | – |
| CC1=NCCc2c1[nH]c1ccccc21.O=[N+]([O-])c1cc([N+](=O)[O-])c(O)c([N+](=O)[O-])c1 | inactive | – |
| O=[N+]([O-])c1cccc([N+](=O)[O-])c1 | inactive | – |
| CP(=O)(Nc1cccc(Br)c1)Oc1ccccc1 (stereo unspecified) | inactive | – |
| Cc1cc(C)cc(OP(C)(=O)Nc2ccccn2)c1 (stereo unspecified) | inactive | – |
| Cc1ccc(C)c(NP(C)(=O)Oc2ccccc2)c1 (stereo unspecified) | inactive | – |
| COc1ccccc1OP(C)(=O)Nc1cccc(Br)c1 (stereo unspecified) | inactive | – |
| Cc1cc(C)cc(OP(C)(=O)Nc2ccc(C)cc2C)c1 (stereo unspecified) | inactive | – |
| O=[N+]([O-])[O-].[NH4+] | inactive | – |
| CCN(CC)CCCOC(=O)C(O)(c1ccccc1)c1ccccc1 | inactive | – |
| CCOC(=O)c1ccc(NP(C)(=O)Oc2ccccc2)cc1 (stereo unspecified) | inactive | – |
| COc1ccccc1OP(C)(=O)Nc1ccc(C)cc1 (stereo unspecified) | inactive | – |
| Cc1ccc(NP(C)(=O)Oc2ccccc2)c(C)c1 (stereo unspecified) | inactive | – |

| SMILES | Potency | re-replication activation |
| --- | --- | --- |
| COc1ccc(OP(C)(=O)Nc2cccc(F)c2)cc1 (stereo unspecified) | inactive | – |
| Cc1cc(C)cc(OP(C)(N)=O)c1 (stereo unspecified) | inactive | – |
| Cc1cccc(C)c1OP(C)(N)=O (stereo unspecified) | inactive | – |
| CP(=S)(Nn1cnnc1)Oc1ccccc1 (stereo unspecified) | inactive | – |
| COc1ccccc1OP(C)(=O)Nc1ccccc1 (stereo unspecified) | inactive | – |
| CP(=O)(Nc1ccccc1Br)Oc1ccccc1 (stereo unspecified) | inactive | – |
| CCOP(C)(=S)SCC(=O)NC(C)C(=O)O (stereo unspecified) | inactive | – |
| CCOC(=O)c1ccc(NP(C)(=O)Oc2ccc(OC)cc2)cc1 (stereo unspecified) | inactive | – |
| O=[N+]([O-])c1cc([N+](=O)[O-])c(O)c([N+](=O)[O-])c1.c1ccc(Oc2ccncc2)cc1 | inactive | – |
| CN(C)CCS | inactive | – |
| CP(=O)(Nc1ccccn1)Oc1ccc(Cl)cc1 (stereo unspecified) | inactive | – |
| Cc1cccc(C)c1OP(C)(=O)Nc1ccc(SC(F)(F)F)cc1 (stereo unspecified) | inactive | – |
| CP(=O)(Nc1ccc(SC(F)(F)F)cc1)Oc1ccc(Cl)cc1 (stereo unspecified) | inactive | – |
| CP(=O)(Oc1ccccc1)OC(c1ccccc1)C(F)(F)F (stereo unspecified) | inactive | – |
| CCc1ccc(OP(C)(=O)N2CCN(c3ccc([N+](=O)[O-])cc3)CC2)cc1 (stereo unspecified) | inactive | – |
| CP(=O)(NC(=O)Nc1ccccc1)Oc1ccccc1 (stereo unspecified) | inactive | – |
| Cc1cc(C)cc(OP(C)(=O)Nc2ccc(SC(F)(F)F)cc2)c1 (stereo unspecified) | inactive | – |
| CC(C)(C)c1ccc(OP(C)(=O)O)cc1 | inactive | – |
| COc1ccccc1OP(C)(=O)Nc1ccccc1Br (stereo unspecified) | inactive | – |
| N#[O+].[C-]#N.[C-]#N.[C-]#N.[C-]#N.[C-]#N.[Fe+2].[Na+].[Na+] | inactive | – |
| CCN(CC)CC(O)COC(=O)C(O)(c1ccccc1)C1CCCCC1 (stereo unspecified) | inactive | – |

| SMILES | Potency | re-replication activation |
| --- | --- | --- |
| COc1ccc(OP(C)(=O)Nc2ccc(Br)cc2)cc1 (stereo unspecified) | inactive | – |
| CP(=O)(Oc1ccccc1)N1CCOC1=O (stereo unspecified) | inactive | – |
| CCc1ccc(OP(C)(=O)Nc2cccnc2)cc1 (stereo unspecified) | inactive | – |
| COc1ccccc1OP(C)(=O)Nc1c(C)n(C)n(-c2ccccc2)c1=O (stereo unspecified) | inactive | – |
| OCCSCCO | inactive | – |
| O=C(OCCCN1CCCC1)C(O)(c1ccccc1)C1CCCCC1 (stereo unspecified) | – | inactive: -0.528% [at 9.22 µM] |
| C/C1=C2N=C(/C=C3N=C(/C(C)=C4\[N-][C@@](C)([C@H]5N=C1[C@@](C)(CCC(=O)NC[C@H](C)OP(=O)([O-])O[C@@H]1[C@H](O)[C@H](n6cnc7cc(C)c(C)cc76)O[C@@H]1CO)[C@@H]5CC(N)=O)[C@](C)(CC(N)=O)[C@H]4CCC(N)=O)[C@@](C)(CC(N)=O)[C@@H]\3CCC(N)=O)C(C)(C)[C@@H]/2CCC(N)=O.[C-]#N.[Co+3] | inactive | – |
| CC(C)OP(=O)(F)OC(C)C | inactive | – |
| Nc1ccc2c(ccc3cccnc32)n1.O=[N+]([O-])c1cc([N+](=O)[O-])c(O)c([N+](=O)[O-])c1 | inactive | – |
| CP(=O)(OC12CC3CC(CC(C3)C1)C2)OC12CC3CC(CC(C3)C1)C2 | inactive | – |
| CCOC(=O)c1ccc(NP(C)(=O)Oc2ccc(Cl)cc2)cc1 (stereo unspecified) | inactive | – |
| CP(=O)(OCCOc1ccccc1)OCCOc1ccccc1 | inactive | – |
| CP(=O)(Nc1ccc(Cl)cc1Cl)Oc1ccccc1 (stereo unspecified) | inactive | – |
| Cc1cc(C)cc(OP(C)(=O)Nc2cccc(C(F)(F)F)c2)c1 (stereo unspecified) | inactive | – |
| COc1ccc(OP(C)(=O)Nc2ccccc2Br)cc1 (stereo unspecified) | inactive | – |
| COc1ccccc1OP(C)(=O)Nc1ccc(C)c(C)c1 (stereo unspecified) | inactive | – |
| Cc1c(NP(C)(=O)Oc2ccc(C(C)C)cc2)c(=O)n(-c2ccccc2)n1C (stereo unspecified) | inactive | – |
| CCc1ccc(OP(C)(=O)O)cc1 | inactive | – |
| CP(=O)(Nc1ccccn1)Oc1ccccc1 (stereo unspecified) | inactive | – |
| COc1ccccc1OP(C)(=O)Nc1ccc(C)cc1C (stereo unspecified) | inactive | – |
| COc1ccccc1OP(C)(=O)Nc1ccc(Br)cc1 (stereo unspecified) | inactive | – |

| SMILES | Potency | re-replication activation |
| --- | --- | --- |
| CN(C)CCOC(=O)C(O)(c1ccccc1)C1CCCC1 (stereo unspecified) | inactive | – |
| COc1ccc(OP(C)(=O)Nc2ccccn2)cc1 (stereo unspecified) | inactive | – |
| O=C(OCCN1CCN(CCOCc2ccccc2)CC1)C(O)(c1ccccc1)c1ccccc1 | inactive | – |
| CC(C)c1ccc(OP(C)(=O)Nc2ccc(SC(F)(F)F)cc2)cc1 (stereo unspecified) | inactive | – |
| CCN(CC)CCCOC(=O)C(O)(c1ccccc1)C1CCCCC1 (stereo unspecified) | inactive | – |
| Cc1c([N+](=O)[O-])cc([N+](=O)[O-])c(Br)c1[N+](=O)[O-] | inactive | – |
| CCCCCOc1ccc(NP(C)(=O)Oc2ccc(Cl)cc2Cl)cc1 (stereo unspecified) | inactive | – |
| CP(=O)(Nc1ccccc1)Oc1ccc(F)cc1 (stereo unspecified) | inactive | – |
| COc1ccc(OP(C)(=O)Nc2ccc(SC(F)(F)F)cc2)cc1 (stereo unspecified) | inactive | – |
| CCOC(=O)c1ccc(NP(C)(=O)Oc2ccc(F)cc2)cc1 (stereo unspecified) | active: 6.51 µM | – |
| O=[N+]([O-])c1ccc(OP2(=O)COCCO2)cc1 (stereo unspecified) | inactive | – |
| Cc1c(C(c2ccc3c(c2)OCO3)c2c(C)n(C)n(-c3ccccc3)c2=O)c(=O)n(-c2ccccc2)n1C.O=[N+]([O-])c1cc([N+](=O)[O-])c(O)c([N+](=O)[O-])c1 | inactive | – |
| COc1ccc(OP(C)(=O)Nc2cccc(Br)c2)cc1 (stereo unspecified) | inactive | – |
| CN(C)CCOC(=O)C(O)(c1ccccc1)C1CCCCC1 (stereo unspecified) | inactive | – |
| CP(=O)(Nc1ccc2c(c1)OCCO2)Oc1ccccc1 (stereo unspecified) | inactive | – |
| Cc1ccccc1NP(C)(=O)Nc1ccccc1C | inactive | – |
| CP(=O)(Nc1ccc(SC(F)(F)F)cc1)Oc1ccc(F)cc1 (stereo unspecified) | inactive | – |
| CCOP(C)(=S)SCC(=O)NC(C)(CC)C(=O)O (stereo unspecified) | inactive | – |
